# Apparent affinities of Ab-14 variants for a coronavirus HR2 peptide

Values reported by Li et al. 2023, doi:10.1038/s41467-023-39022-2 (FLAb copy).

Binding partner: SARS-CoV-2 spike HR2 peptide, sequence PDVDLGDISGINAS.

Ab-14 is the parent antibody, in scFv form: VH, then the linker GGGGSGGGGSGGGGS, then VL. The heavy chain is unchanged in all variants.
VH: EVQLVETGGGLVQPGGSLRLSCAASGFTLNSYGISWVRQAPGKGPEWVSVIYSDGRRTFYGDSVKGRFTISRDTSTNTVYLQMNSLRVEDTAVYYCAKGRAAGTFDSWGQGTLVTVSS
VL: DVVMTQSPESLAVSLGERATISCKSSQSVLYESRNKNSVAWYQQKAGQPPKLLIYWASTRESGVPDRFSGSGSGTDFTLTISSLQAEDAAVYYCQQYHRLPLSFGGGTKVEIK

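The starting antibody came from a phage panning campaign against this peptide. These sequences belong to a second round, designed from the earlier measurements on random variants of the parent. Their group label is 14L_GP_HC (GP: Gaussian process model; HC: hill climbing; a sequence that several methods proposed may carry one label only). The scFvs were displayed on barcoded MATa yeast, the peptide on MATalpha yeast. Mating (16 h, 30 °C) was followed by selection of diploids and sequencing of their barcodes. A regression on co-assayed BCL2-family reference pairs converts the normalised counts of each replicate to an apparent Kd. Each pool was mated in six replicate cultures.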

The parent's light chain CDRs are KSSQSVLYESRNKNSVA, WASTRES, QQYHRLPLS; each variant's own CDRs replace them letter for letter. Affinities are written as log10 Kd with Kd in nM; a lower number is a better binder. "ND" means that the variant was in the library but no mating with the target was seen in that replicate; the authors take this as a sign of poor binding, and no number exists. A sequence measured in both rounds can read differently, since the two assays cover different ranges. In the paper, a design with two or fewer of six values counts as a poor binder. Background: pairings of all light chain designs with three empty control strains gave a value in 4% of cases (median 2.64, 5th percentile 1.59). Values in that range, when seen in few replicates, are hard to tell from nonspecific mating. The control count says in how many pairings with the empty strains this scFv gave a signal, with their mean in brackets.

CDR-L1	CDR-L2	CDR-L3	replicates, log10 nM	empty controls
KSLQSVLYESRNKNSVA	HASTRED	QQYHQLPLS	0.08 0.38 0.28 0.21 0.29 0.12	3 of 18 (2.85)
KISISYLYESRNTNSVA	EASTRES	QQYHRLPLS	0.34 -0.09 0.16 0.30 0.16 0.14	3 of 18 (2.60)
KSSQSVLYESGNKNSVA	DASTRED	QQYHRLPLS	-0.81 -1.54 -0.09 -1.85 -1.89 ND	0 of 18
KFSQSVLYESRTSNQVA	NASTRES	QQYHRLPLS	0.31 0.23 -0.05 -0.10 0.01 0.45	0 of 18
KFSDSVLLESRTKNAVA	NASTRES	QQYHRLPLS	0.22 -0.05 -0.10 -0.06 -0.32 -0.46	0 of 18
KFSQSVLYESRNKNSVA	NASTREV	QQYHRLPLS	-0.07 -0.04 -0.24 -0.31 -0.25 0.05	0 of 18
KFSQSWLYESRNFWSVA	GASTRES	QQYHRLPLS	0.73 0.87 0.60 0.89 0.62 0.67	0 of 18
KSSQSWLYESRNFNSVA	GASTRES	QQYHRLPLS	0.07 -0.20 -0.29 -0.39 -0.16 -0.04	3 of 18 (3.53)
KSSISQLEESRNKNSVA	EASTRES	QQYHALPLS	1.34 0.72 0.59 0.75 0.55 0.80	0 of 18
KSYISELYESRNKNSVA	EASTRES	QQYHRLPLS	1.12 0.77 1.41 2.82 ND 0.91	0 of 18
KSSQSWLYESRNKNSVA	GASYREV	QQYHRLPLS	-0.34 -0.49 -0.41 -0.93 -0.38 -0.75	0 of 18
KSGQGVLYESRNKNSVA	GASQRYS	QQYHRLPLS	0.55 0.19 0.16 0.50 0.37 0.34	2 of 18 (2.94)
KLLWSVLYESNNVNSVA	HASTRED	QQYHRLPLS	1.31 1.06 1.27 0.90 1.10 0.59	4 of 18 (3.16)
KQSQSDLQESRNKNSVA	DASTRES	QQYHRLPLS	-0.08 -0.33 -0.12 -0.16 -0.33 -0.21	2 of 18 (3.06)
KFSQSVLYESRTKNSVA	NATTRET	QQYHRLPLS	-0.08 -0.09 -0.12 -0.16 -0.17 0.08	1 of 18 (2.56)
HSSPSVQYESRNKNSVA	NASTREE	QDYHRLPLS	0.09 -0.10 -0.04 -0.24 -0.03 -0.07	4 of 18 (3.33)
KQSQEMLYESRNKNSVA	DASTRES	QQYHRLPLS	-0.42 -0.04 -0.18 -0.40 -0.36 -0.37	2 of 18 (3.04)
KSSQSWLYESRNFQSVA	GASTRES	QQYHRLPLS	0.59 -0.09 0.01 -0.16 -0.06 0.12	0 of 18
KSSQSVEMESRNANSVA	DASTRES	QQYHRLPLS	0.61 0.23 0.17 0.09 -0.17 0.56	1 of 18 (3.14)
KSSHSYLYESRNKNSVA	AASTRES	QQYHRLPLS	0.56 0.94 0.47 0.19 0.40 0.32	2 of 18 (1.79)
KSPQSVLYESRNKNSVA	SASTRED	QSYHRLPLS	0.62 0.24 0.32 -0.20 0.36 0.20	0 of 18
KSSQSQLYSSRNKNSVA	GASTRES	QQYHRLTLS	-0.54 1.60 -0.66 -1.11 -0.50 -0.71	0 of 18
KSSPSYLYPSRNENSVA	EASTREQ	QQYHRLPLS	1.13 0.05 -0.16 -0.08 0.13 -0.12	0 of 18
KTSQSVKFESRNKNSVA	DASTRES	QQYHRLPLS	0.87 1.00 0.79 0.54 0.86 0.86	0 of 18
KSGQGDLYESRNKNSVA	GASQRES	QQYHRLPLS	0.01 0.13 0.23 -0.02 0.02 0.06	0 of 18
KLRQSTLYESRNKNEVA	GASTRES	QQYHRLPLS	0.66 0.71 0.60 0.34 0.71 0.63	3 of 18 (3.22)
KYYPSYLYESRNKNSVA	EASTRES	QQYHRLPLS	0.01 0.21 0.32 -0.05 0.52 0.11	1 of 18 (1.84)
KFSQSVLYESRTKNAVA	NASTRES	QQYHRLPLS	0.11 -0.05 -0.05 -0.22 0.02 0.10	0 of 18
KFSQSVLYESTTCNSVA	NASTRES	QQYHRLPLS	0.30 0.31 0.34 0.27 0.32 0.62	0 of 18
KSLISQEYESRNKNSVA	HASTRED	QQYHRLPLS	0.08 -0.17 -0.17 -0.02 0.02 -0.13	2 of 18 (2.78)
KSSISYLYESPNKNSVA	EASTRED	QQYHRLPLS	0.41 0.38 -0.09 0.16 0.13 0.26	1 of 18 (2.72)
KMSQSVLMETRNKNSVA	DASLRES	QQYHRLPLS	-0.26 -0.15 -0.36 -0.44 -0.33 -0.22	1 of 18 (2.54)
KISQVYLYESRNKNSVA	DASTRES	QQYHRLPLS	0.20 -0.42 -0.08 -0.31 -0.30 -0.17	0 of 18
KVSQSVLYESGTKNSVA	NASKRES	QQYHRLPLS	0.22 -0.08 -0.14 -0.09 -0.07 0.15	0 of 18
KLRQSTLYESRNKNSVA	LASVRES	QQYHRLPLS	1.06 0.88 1.00 1.18 0.83 1.39	1 of 18 (2.04)
KWSQSVKFESRNKNSVA	DASTRES	QQYHRLPLS	0.47 0.28 0.05 0.12 0.11 0.30	1 of 18 (3.47)
KLSNSTLYESRQKNSVA	WASTRES	QQYHRLPLS	ND ND ND ND ND ND	0 of 18
KSSQSWDYESRNKNSVA	HASTREQ	QQYHRLPLS	0.28 0.16 -0.07 0.02 0.33 0.61	3 of 18 (3.62)
KSLQSWLYESRNKNSVA	GASTREQ	QQYHRLPLS	0.65 0.12 0.08 -0.19 0.46 0.10	1 of 18 (1.74)

Extract of 6 entries:

CDR-L1,CDR-L2,CDR-L3,"replicates, log10 nM",empty controls
KSSHSYLYESRNKNSVA,AASTRES,QQYHRLPLS,0.56 0.94 0.47 0.19 0.40 0.32,2 of 18 (1.79)
KSSQSVLYESGNKNSVA,DASTRED,QQYHRLPLS,-0.81 -1.54 -0.09 -1.85 -1.89 ND,0 of 18
KQSQSDLQESRNKNSVA,DASTRES,QQYHRLPLS,-0.08 -0.33 -0.12 -0.16 -0.33 -0.21,2 of 18 (3.06)
KSSISYLYESPNKNSVA,EASTRED,QQYHRLPLS,0.41 0.38 -0.09 0.16 0.13 0.26,1 of 18 (2.72)
KSSISQLEESRNKNSVA,EASTRES,QQYHALPLS,1.34 0.72 0.59 0.75 0.55 0.80,0 of 18
KSGQGDLYESRNKNSVA,GASQRES,QQYHRLPLS,0.01 0.13 0.23 -0.02 0.02 0.06,0 of 18